This is an account of results in patent publication US20070196865A1 (priority 2003, published 2007).

The target of this experiment is delta opioid receptor (human) (UniProt P41143). In words: cell-based or functional assay.

With [D-Pen2,D-Pen5]-enkephalin (peptide), the EC50 (Fgrains; multiplex pool of cells expressing β2AR, AT1AR, DOR) stood at 11.2 nM.
